Experimental data reported in patent publication US10150751B2 (Merck Sharp & Dohme Corp., priority 2014, dated 2018).

By UniProt entry, the sequences of proteins in these tests, tags left out.
UniProt O43614, whole entry: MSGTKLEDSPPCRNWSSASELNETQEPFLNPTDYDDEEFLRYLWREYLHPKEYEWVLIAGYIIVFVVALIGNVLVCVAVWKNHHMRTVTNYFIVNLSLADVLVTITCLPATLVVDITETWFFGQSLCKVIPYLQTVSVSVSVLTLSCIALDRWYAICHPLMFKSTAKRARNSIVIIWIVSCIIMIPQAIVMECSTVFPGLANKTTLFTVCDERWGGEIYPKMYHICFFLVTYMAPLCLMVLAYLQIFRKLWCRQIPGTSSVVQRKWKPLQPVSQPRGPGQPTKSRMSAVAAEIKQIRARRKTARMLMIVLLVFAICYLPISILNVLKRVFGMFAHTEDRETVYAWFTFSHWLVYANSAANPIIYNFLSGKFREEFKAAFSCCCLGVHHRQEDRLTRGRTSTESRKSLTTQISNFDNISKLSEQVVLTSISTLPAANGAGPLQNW
UniProt O43613, whole entry: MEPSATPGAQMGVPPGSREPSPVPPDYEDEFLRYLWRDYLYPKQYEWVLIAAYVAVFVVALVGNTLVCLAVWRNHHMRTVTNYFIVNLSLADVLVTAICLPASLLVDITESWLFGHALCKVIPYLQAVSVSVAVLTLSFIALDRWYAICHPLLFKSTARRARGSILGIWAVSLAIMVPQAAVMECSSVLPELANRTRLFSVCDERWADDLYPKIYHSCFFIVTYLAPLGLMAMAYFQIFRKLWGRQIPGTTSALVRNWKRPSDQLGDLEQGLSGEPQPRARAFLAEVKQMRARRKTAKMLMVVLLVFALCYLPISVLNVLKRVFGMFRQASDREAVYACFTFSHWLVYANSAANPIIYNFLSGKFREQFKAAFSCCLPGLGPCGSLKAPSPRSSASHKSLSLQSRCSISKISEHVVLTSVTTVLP

Columns and labels:
human orexin-2 receptor = human orexin-2 receptor (Homo sapiens (Human), UniProt O43614); experiment: FLIPR Ca2+ flux assay, hOX2R; type: cell-based; details: read-out: hOX2R FLIPR IC50; CHO cells expressing the human orexin-2 receptor; agonist 70 pM Ala-6,12 orexin-A
Description: The utility of the compounds in accordance with the present invention as orexin receptor OX1R and/or OX2R antagonists may be readily determined without undue experimentation by methodology well known in the art, including the “FLIPR Ca^2+ Flux Assay” (Okumura et al., Biochem. Biophys. Res. Comm. 280:976-981, 2001). In a typical experiment the OX1 and OX2 receptor antagonistic activity of the compounds of the present invention was determined in accordance with the following experimental method. For intracellular calcium measurements, Chinese hamster ovary (CHO) cells expressing the rat orexin-1 receptor or the human orexin-2 receptor, are grown in Iscove's modified DMEM containing 2 mM L-glutamine, […], 1% hypoxanthine-thymidine supplement, 100 U/ml penicillin, 100 μg/ml streptomycin and 10% heat-inactivated fetal calf serum (FCS). The cells are seeded at 20,000 cells/well into Becton-Dickinson black 384-well clear bottom sterile plates coated with poly-D-lysine. All reagents were from GIBCO-Invitrogen Corp. The seeded plates are incubated overnight at 37° C. and 5% CO2. […] Within the Fluorescent Imaging Plate Reader (FLIPR, Molecular Devices), test compounds are added to the plate in a volume of 25 μl, incubated for 5 min and finally 25 μl of agonist is added. Fluorescence is measured for each well at 1 second intervals for 5 minutes and the height of each fluorescence peak is compared to the height of the fluorescence peak induced by 70 pM Ala-6,12 orexin-A with buffer in place of antagonist. […] Alternatively, compound potency can be assessed by a radioligand binding assay (described in Bergman et. al. Bioorg. Med. Chem. Lett. 2008, 18, 1425-1430) in which the inhibition constant (Ki) is determined in membranes prepared from CHO cells expressing either the OX1 or OX2 receptor. The intrinsic orexin receptor antagonist activity of a compound which may be used in the present invention may be determined by these assays.

[1] = target: hOX1R (orexin-1 receptor) (Homo sapiens, UniProt O43613); experiment: FLIPR Ca2+ flux assay, hOX1R; type: cell-based; details: read-out: hOX1R FLIPR IC50; CHO cells expressing the orexin-1 receptor (head: hOX1R; method: rat); agonist 70 pM Ala-6,12 orexin-A

Row | Structure (SMILES) | IC50 (human orexin-2 receptor) [nM] | IC50 [1] [nM]
1 | COc1ccnc(N[C@@H]2C[C@@H](C)N(C(=O)c3ccccc3-c3nc(C)no3)C2)c1 | 278 | 10000
2 | CCCc1ccccc1C(=O)N1C[C@H](Nc2cc(OC)ccn2)C[C@H]1C | 179 | 9830
3 | COc1ccnc(N[C@H]2C[C@H](C)N(C(=O)c3ccccc3OC(F)(F)F)C2)c1 | 41 | 3950
